# Measurements reported in paper PMC10899660, “Global fungal-host interactome mapping identifies host targets of candidalysin” (Nature Communications, 2024).
# How the values were obtained:
# [1] = test system: CHO-K1 cells; assay: Cell activity assay and cytotoxicity LDH assay, CHO-K1 cells; format: cell-based
# Experimental: Cells were deposited into 96-well plates and incubated at 37 °C with 5% CO2. Prior to the cell damage assay, cells were starved in serum-free medium overnight. Cytotoxicity LDH Assay Kit-WST (Dojindo, #CK12) was applied to determine the lactate dehydrogenase (LDH) activity released from cells that were damaged by candidalysin for 2 h or 4 h according to the manufacturer’s instructions.
# CHO-K1 cells were deposited into 96-well plates and incubated at 37 °C with 5% CO2. Before the viability assay, cells were starved in serum-free F12K medium overnight. Calcein/PI Cell Viability/Cytotoxicity Assay Kit (DOJINDO, C542) was applied to determine the cell viability that were treated by candidalysin for 4 h.
# [2] = test system: epithelial cells; settings: ref [18],[19]; cited from earlier work
# Text: Candidalysin plays a vital role in fungal infection. […] But the direct human target of candidalysin remains unknown, which requires an overall understanding of the interactome between candidalysin and host. In this study, we performed a high-throughput enhanced yeast two-hybrid (HT-eY2H) ass ...
# [3] = test system: CCNH; assay: Co-immunoprecipitation of CCNH-3×FLAG with EGFP-tagged Ece1 peptides in HEK-293T cells; format: binding, human; settings: CCNH-3×FLAG and Ece1-EGFP
# Experimental: The overexpression plasmids CCNH-3×FLAG and Ece1-II-EGFP, Ece1-III-EGFP, Ece1-IV-EGFP and Ece1-V-EGFP were co-transfected into 5×10^5 HEK-293T cells by Lipofectamine™ 3000 (Thermo Scientific™, L3000001) respectively. The HEK-293T cells were lysed for 48 h in RIPA buffer (Beyotime, P0013B) and added with the Phosphatase inhibitor cocktail D (Beyotime, P1096) and Phenylmethanesulfonyl fluoride (Beyotime, ST505) for 30 minutes on ice. After microcentrifuge for 15 minutes at 4 °C, the supernatants were heated at 100 °C for 5 min as the input group. The remaining supernatants were divided into two equal group: the GFP group added with GFP (5G4) Mouse mAb (Magnetic Bead Conjugate) (Cell Signaling Technology, #67090) at 1:10 dilution, and the IgG group added with Mouse IgG (Magnetic Bead Conjugate) (Cell Signaling Technology, #5873) at 1:10 dilution. Both groups were incubated with rotation overnight at 4 °C. By using magnetic rack to pellet beads, the samples were washed and lysised for western blot assay. Primers used are as follows: Candidalysin-VN173-internal-F (5′- […]-3′) and Candidalysin-VN173-internal-R (5′- […]-3′), CCNH-VC155-internal-F (5′-[…]-3′) and CCNH-VC155-internal-R (5′-[…]-3′). […]
# [4] = test system: FaDu cells; assay: qRT-PCR of DNA damage repair and nucleotide excision repair-related genes, FaDu cells; format: cell-based; settings: for Relative expression, 53BP1: 53BP1, 4h; for Relative expression, CCNH: 4h; for Relative expression, Ercc1: Ercc1, 4h; for Relative expression, Ercc4: Ercc4, 4h; for Relative expression, Ercc5: Ercc5, 4h; for transcription of CCNH, ERCC1, ERCC4/XPF, ERCC5/XPG and 53BP1: FaDu, 10 µM
# Experimental: To determine the gene expression patterns of FaDu and A549 cells, candidalysin-treated cells were washed with pre-warmed PBS and collected after addition of RNAlater (Beyotime, # R0118-100ml) before RNA isolation with a RNeasy Mini Kit (Qiagen, #74106). After determination of the purity and concentration of RNA by Nanodrop, the cDNA was obtained by a PrimeScript™ RT reagent Kit (Perfect Real Time) (Takara, #RR037A). Real-time PCR was then performed with 2x SYBR Green qPCR Master Mix (Bimake, # B21203) in a Biorad CFX96 thermocycler (CFX96 Touch Real-Time PCR Detection System). Primers used are as follows: ERCC1-internal-F (5′-[…]-3′) and ERCC1-internal-R (5′-[…]-3′), ERCC4-internal-F (5′-[…]-3′) and ERCC4-internal-R (5′-[…] −3′), ERCC5-internal-F (5′-[…]-3′) and ERCC5-internal-R (5′-[…]-3′), 53BP1-internal-F (5′-[…]-3′) and 53BP1-internal-R (5′-[…]-3′), β-actin-internal-F (5′-[…]-3′) and β-actin-internal-R (5′-[…]-3′), CCNH-internal-F (5′-[…]-3′) and CCNH-internal-R (5′-[…]-3′), IL-1α-internal-F (5′-[…]-3’) and IL-1α-internal-R (5′-[…]-3′), IL-6-internal-F (5′-[…]-3′) and IL-6-internal-R (5′-[…]-3′), RHOA-internal-F (5′-[…]-3′) and RHOA-internal-R (5′- […]-3′).
# [5] = test system: FaDu cells; assay: Alkaline comet assay, FaDu cells; format: cell-based; settings: 10 µM, 4 h
# Experimental: Alkaline comet analysis was performed with some modifications to evaluate DNA damage. Briefly, following the termination of the treatment, 1.5 × 10^4 cells were mixed with 180 μl 0.5% low-melting-point agarose. The mixture was spread on pre-coated slides with normal agarose (1.5% in PBS) and cooled on ice to solidify. The slides were immersed in pre-cooled lysis solution (2.5 M sodium chloride, 100 mM EDTA, 10 mM Tris, 1% Triton-X 100, and 10% DMSO, pH 10) at 4 °C for 1 h, and placed in a gel electrophoresis apparatus containing electrophoresis buffer (300 mM NaOH and 1 mM EDTA) for 20 min to unwind the DNA, followed by electrophoresis for 20 min at 25 V / 300 mA on ice. Slides were neutralized (0.4 M Tris-HCl, pH 7.5) for 15 min and stained with 4’,6-diamidino-2-phenylindole (DAPI, Beyotime, #C1002). The comet images, taken by fluorescence microscopy (Olympus), were analyzed using CASP 1.2.3b1.
compound,measurement,setting,value
CC[C@H](C)[C@H](NC(=O)CNC(=O)[C@H](CCSC)NC(=O)[C@@H](NC(=O)[C@@H](NC(=O)CNC(=O)[C@@H](NC(=O)[C@@H](NC(=O)[C@@H](N)CO)[C@@H](C)CC)[C@@H](C)CC)[C@@H](C)CC)[C@@H](C)CC)C(=O)N[C@@H](CC(C)C)C(=O)NCC(=O)N[C@@H](CC(N)=O)C(=O)N[C@H](C(=O)N1CCC[C@H]1C(=O)N[C@@H](CCC(N)=O)C(=O)N[C@H](C(=O)N[C@H](C(=O)N[C@@H](CCC(N)=O)C(=O)N[C@H](C(=O)N[C@H](C(=O)N[C@@H](CCSC)C(=O)N[C@@H](CO)C(=O)N[C@H](C(=O)N[C@H](C(=O)N[C@@H](CCCCN)C(=O)N[C@@H](C)C(=O)N[C@@H](Cc1ccccc1)C(=O)N[C@@H](CCCCN)C(=O)NCC(=O)N[C@@H](CC(N)=O)C(=O)N[C@@H](CCCCN)C(=O)O)C(C)C)[C@@H](C)CC)[C@@H](C)CC)[C@@H](C)CC)[C@@H](C)CC)C(C)C)[C@@H](C)CC [Ece1-III],Cell damage (%),"[1]; 10μM, replicate 1",0.2556%
same,Live Cells (%),"[1]; 10μM, replicate 1",99.149%
same,Cell damage (%),"[1]; 10μM, replicate 2",2.301%
same,Live Cells (%),"[1]; 10μM, replicate 2",99.5607%
same,Cell damage (%),"[1]; 10μM, replicate 3",7.209%
same,Live Cells (%),"[1]; 10μM, replicate 3",99.6668%
same,Cell damage (%),"[1]; 10μM, replicate 4",2.71%
same,Live Cells (%),"[1]; 10μM, replicate 4",99.1683%
same,Live Cells (%),"[1]; 10μM, replicate 5",99.5551%
same,Cell damage (%),"[1]; 80μM, replicate 1",94.1718%
same,Live Cells (%),"[1]; 80μM, replicate 1",9.9577%
same,Cell damage (%),"[1]; 80μM, replicate 2",91.3088%
same,Live Cells (%),"[1]; 80μM, replicate 2",7.472%
same,Cell damage (%),"[1]; 80μM, replicate 3",80.6749%
same,Live Cells (%),"[1]; 80μM, replicate 3",7.761%
same,Cell damage (%),"[1]; 80μM, replicate 4",90.6953%
same,Live Cells (%),"[1]; 80μM, replicate 4",17.719%
same,cytotoxicity,"[1]; CHO-K1, 10 μM, 4 h",not
same,cell damage and epithelial immunity,[2],"cell damage, calcium influx, membrane destabilization via membrane intercalation, permeabilization and pore formation"
same,interaction with CCNH by Co-IP,[3],direct interaction
same,"Relative expression, 53BP1",[4]; replicate 1,1.705
same,"Relative expression, 53BP1",[4]; replicate 2,1.7025
same,"Relative expression, 53BP1",[4]; replicate 3,1.775
same,"Relative expression, CCNH",[4]; replicate 1,2.9884
same,"Relative expression, CCNH",[4]; replicate 2,2.6626
same,"Relative expression, CCNH",[4]; replicate 3,2.808
same,"Relative expression, Ercc1",[4]; replicate 1,15.6441
same,"Relative expression, Ercc1",[4]; replicate 2,14.2201
same,"Relative expression, Ercc1",[4]; replicate 3,15.2277
same,"Relative expression, Ercc4",[4]; replicate 1,8.4146
same,"Relative expression, Ercc4",[4]; replicate 2,8.1376
same,"Relative expression, Ercc4",[4]; replicate 3,8.5305
same,"Relative expression, Ercc5",[4]; replicate 1,5.6196
same,"Relative expression, Ercc5",[4]; replicate 2,5.9126
same,"Relative expression, Ercc5",[4]; replicate 3,5.7838
same,"transcription of CCNH, ERCC1, ERCC4/XPF, ERCC5/XPG and 53BP1",[4]; 4 h,upregulated
same,"transcription of CCNH, ERCC1, ERCC4/XPF, ERCC5/XPG and 53BP1",[4]; 24 h,transcriptionally suppressed
same,incidence of double-strand DNA breaks (DSBs),[5],significantly increased
